Values quoted from earlier work as cited in US9072786B2, “Method of manufacturing an implantable device” (Endo Pharmaceuticals Solutions Inc., priority 2008, dated 2015).

Columns and labels:
[1] = concentration of surfactant at which micelles form
[2] = hydrophilic-lipophilic balance of the surfactant

D-α-tocopheryl (Vitamin E) polyethylene glycol 1000 succinate [Vitamin E TPGS]
CMC [1]: 0.1 mM | HLB [2]: 13
